Earlier results as cited in US20100119624A1, “BENZISOXAZOLE MODULATORS OF D2 RECEPTOR AND/OR 5-HT2A RECEPTOR” (AUSPEX PHARMACEUTICALS, INC., priority 2008, published 2010).

By UniProt entry, the sequences of proteins in these tests, tags left out.
UniProt P14416, whole entry: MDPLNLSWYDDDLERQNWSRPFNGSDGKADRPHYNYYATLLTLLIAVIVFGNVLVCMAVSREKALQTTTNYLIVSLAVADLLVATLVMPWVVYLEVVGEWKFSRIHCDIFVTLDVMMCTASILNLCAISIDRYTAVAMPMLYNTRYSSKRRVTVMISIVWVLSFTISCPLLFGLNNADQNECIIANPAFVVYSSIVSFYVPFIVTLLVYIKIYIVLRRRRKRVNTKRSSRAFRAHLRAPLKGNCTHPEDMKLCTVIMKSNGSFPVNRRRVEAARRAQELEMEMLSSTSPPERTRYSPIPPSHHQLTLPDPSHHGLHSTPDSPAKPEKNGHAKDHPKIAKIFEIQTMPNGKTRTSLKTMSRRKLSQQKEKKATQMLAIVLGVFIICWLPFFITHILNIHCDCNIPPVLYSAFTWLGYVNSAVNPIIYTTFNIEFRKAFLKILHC

Target: D2 receptors (Homo sapiens, UniProt P14416)
Conditions: as active as risperidone

Cc1nc2n(c(=O)c1CCN1CCC(c3noc4cc(F)ccc34)CC1)CCCC2O (stereo not shown) [9-Hydroxyrisperidone]
activity relative to risperidone at D2 receptors: approximately 70%
